Test results as given in article PMC12802961 (Journal of Antimicrobial Chemotherapy, 2025).

System: P. aeruginosa 106
Assay: Neutropenic murine thigh infection model
Assay type: in vivo, Pseudomonas aeruginosa
Conditions: cefepime q2h 64 mg/kg, potMIC 4 mg/L (with 4 mg/L taniborbactam)
Protocol: […]. […] […]. All dosing regimens were performed in at least two animals per dosing regimen.
At t = 0 h, 2 h after infection, two mice were humanely euthanized to determine the initial number of cfu/thigh just before treatment. All other animals were euthanized at t = 24 h unless the welfare of the animals indicated earlier termination, following animal welfare regulations. Thighs were taken and moved to a pre-cooled 10 mL plastic tube (Transport Tube, Omnilabo, NL) containing 2 mL PBS (NaCl 8.00 g/L, Na2HPO4 * 2H2O 1.44 g/L, KH2PO4 0.26 g/L, pH 7.2–7.4). Subsequently, thighs were homogenized using the Ultra-Turrax homogenizer (IKA Labortechnik, Germany). For each thigh 10-fold dilution series were prepared and 3 × 10 µL per dilution were plated (Chromagar, bioMérieux, NL). The following day, colonies were counted and the number of cfu/thigh was calculated. The drug effect was then determined as the difference between the log10cfu/thigh values at t = 24 h and t = 0 h (mean value of two mice) expressed as Δlog10cfu, i.e. positive result for growth, zero for static effect and negative for reduction of inoculum (killing).
. […] Free drug concentrations were used in all calculations. […]

CO/N=C(\C(=O)N[C@@H]1C(=O)N2C(C(=O)[O-])=C(C[N+]3(C)CCCC3)CS[C@H]12)c1csc(N)n1 [cefepime, Cefepime]
Cefepime %fT > potMIC: 57.70%
